{"source": "paper PMC11305080", "about": "(Cell reports, 2024)", "binders": {"B1": {"name": "1D05 Fab (Fab, V domains shown)", "VH": "QVQLVQSGAEVKKPGSSVKVSCKASGGTFNSHAISWVRQAPGQGLEWMGGINPILGIANYAQKFQGRVTITADESTSTAYMELSSLRSEDTAVYYCARHYEIQIGRYGMNVYYLMYRFASWGQGTLVTVSS", "VL": "DIQMTQSPSSLSASVGDRVTITCRASQGIRSALNWYQQKPGKAPKLLIYNGSTLQSGVPSRFSGSGSGTDFTLTISSLQPEDFAVYYCQQFDGDPTFGQGTKVEIK", "notes": "variable region of 1D05 as in PDB 2XTJ, on a human IgG constant region with an HRV3C cleavage site in the hinge; Fab part after cleavage; variable region of 1D05 as in PDB 2XTJ, on a human constant region; Variable regions were synthesised and subcloned into pVRC8400 vectors containing human IgG constant regions; source: Expi293F cells, co-transfected heavy and light chain; IgG purified, cleaved …"}}, "target": "T1, HIT01-K21Q-R218E (cleavage-resistant variant of HIT01) (Designed: Pangasianodon hypophthalmus …, UniProt A0A5N5LAK0;PRINTED, chimera)", "T1 construct": "also called HIT01-K21Q-R21E; HIT01-R21Q-R218E; source: Expi293 cells, transient transfection, purified (Ni-NTA, strep chromatography, SEC); not shown: His tag, C-terminal, kept", "assay": "BLI; PCSK9 or variant proteins (50 μg/mL in PBS) loaded onto Ni-NTA biosensors by their C-terminal histidine tags; antibody Fab in solution (0.00625–0.4 μM); 1x Kinetics Buffer; association 300 s, dissociation 600 s", "details": "both partners purified", "data": [{"binder": "B1", "values": [{"measurement": "fold higher affinity than to human PCSK9", "value": "> 8", "unit": "fold"}]}]}
